Drawing on US7189706B2, “C2,5′-disubstituted and N6,C2,5′-trisubstituted adenosine derivatives and pharmaceutical compositions containing them” (Universiteit Leiden, priority 2001, dated 2007), this text covers A2A/A3 selectivity ratio for one substance.

Amino acid sequences for entries named in this document (tags omitted).
UniProt P0DMS8, whole entry: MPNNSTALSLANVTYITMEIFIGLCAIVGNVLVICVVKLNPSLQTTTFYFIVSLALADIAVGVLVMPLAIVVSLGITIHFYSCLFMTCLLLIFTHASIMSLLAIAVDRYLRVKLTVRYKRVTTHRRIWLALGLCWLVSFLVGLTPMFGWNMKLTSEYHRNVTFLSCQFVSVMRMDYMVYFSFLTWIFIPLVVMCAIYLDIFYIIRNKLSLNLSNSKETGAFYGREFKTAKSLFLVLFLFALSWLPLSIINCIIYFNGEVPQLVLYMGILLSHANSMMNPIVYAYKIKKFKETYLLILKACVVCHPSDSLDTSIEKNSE

The target of this test is T1, human A3 receptor as expressed in HEK 293 cells (Homo sapiens, UniProt P0DMS8).
T1 construct: expressed in transfected cells; host or cells: HEK 293 cell membranes
Kind of test: Radioligand binding assay, displacement of [125I]AB-MECA (adenosine A3). The note with it: ratio of Ki values of Table 2 (rat A2A / human A3). A general note: Displacement assays read how much labelled ligand stays bound in the presence of the test substance.

As to “5′-Deoxy-2-iodo-5′-methylthioadenosine [Compound 33]”, the A2A/A3 selectivity ratio came to 15 fold.
